# Like-named read-outs stand apart in the source and are kept apart here.
# Experiments:
# [1] = test system: FcεR1/SYK‐mediated basophil degranulation; settings: MAD
# [2] = test system: BCR/SYK‐mediated B‐cell activation; settings: SAD 200‐ and 300‐mg cohorts combined
smiles,measurement,setting,value
"CC(=O)O.NC(=O)c1cnc(N[C@@H]2CCCC[C@@H]2N)nc1Nc1cccc(-n2nccn2)c1 [PRT062607, 4‐((3‐(2H‐1,2,3‐triazol‐2‐yl)phenyl)amino)‐2‐(((1R,2S)‐2‐aminocyclohexyl)amino)pyrimidine‐5‐carboxamide acetate]",inhibition in the basophil degranulation assay,[1]; 33 mg,Only modest inhibition
same,inhibition in the basophil degranulation assay,[1]; 110 mg,complete inhibition
same,reversal of inhibition of BCR‐mediated B‐cell activation,[2],returned to predose levels after 24 hours
